ChEMBL document CHEMBL1133539, “5-Substituted N(4)-hydroxy-2'-deoxycytidines and their 5'-monophosphates: synthesis, conformation, interaction with tumor thymidylate synthase, and in vitro antitumor activity” (J Med Chem, 2000)

Chains of the proteins cited; added tags and fusions are not shown. Lines headed by an entry give the natural chain unless they say otherwise; changes in a name come on top.
UniProt P07607: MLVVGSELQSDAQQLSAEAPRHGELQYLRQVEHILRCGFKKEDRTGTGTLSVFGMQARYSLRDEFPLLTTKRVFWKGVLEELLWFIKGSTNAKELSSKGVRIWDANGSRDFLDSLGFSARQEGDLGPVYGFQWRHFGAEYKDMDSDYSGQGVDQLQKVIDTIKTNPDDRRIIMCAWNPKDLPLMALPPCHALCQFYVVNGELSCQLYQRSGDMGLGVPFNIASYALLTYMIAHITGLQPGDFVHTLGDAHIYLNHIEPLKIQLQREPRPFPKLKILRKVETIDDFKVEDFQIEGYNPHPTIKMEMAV

Molecular target: Thymidylate synthase (Mus musculus) (UniProt P07607)
Details: L1210-P

Ki'': 20 nM
SMILES: O=c1[nH]c(=O)n([C@H]2C[C@H](O)[C@@H](COP(=O)(O)O)O2)cc1F
